{"source": "ChEMBL document CHEMBL1131119", "about": "“N'-Phenylindol-3-ylglyoxylohydrazide derivatives: synthesis, structure-activity relationships, molecular modeling studies, and pharmacological action on brain benzodiazepine receptors” (J Med Chem, 1998)", "target": "GABA-A receptor; anion channel", "format": "cell membranes, Bos taurus, Brain membranes", "data": [{"smiles": "O=C1CN=C(c2ccccc2Cl)c2cc([N+](=O)[O-])ccc2N1", "note": "[CLONAZEPAM]", "values": [{"measurement": "Ki", "result": 0.85, "unit": "nM"}]}]}
